In ChEMBL document CHEMBL1148435, “N,N-dialkyl-4-[(8-azabicyclo[3.2.1]-oct-3-ylidene)phenylmethyl]benzamides, potent, selective delta opioid agonists” (Bioorg Med Chem Lett, 2004) one finds Relative efficacy data, which are given here for four molecules.

Protein sequences, listed by entry. Tags and fused reporters are not part of them.
UniProt P41143, whole entry: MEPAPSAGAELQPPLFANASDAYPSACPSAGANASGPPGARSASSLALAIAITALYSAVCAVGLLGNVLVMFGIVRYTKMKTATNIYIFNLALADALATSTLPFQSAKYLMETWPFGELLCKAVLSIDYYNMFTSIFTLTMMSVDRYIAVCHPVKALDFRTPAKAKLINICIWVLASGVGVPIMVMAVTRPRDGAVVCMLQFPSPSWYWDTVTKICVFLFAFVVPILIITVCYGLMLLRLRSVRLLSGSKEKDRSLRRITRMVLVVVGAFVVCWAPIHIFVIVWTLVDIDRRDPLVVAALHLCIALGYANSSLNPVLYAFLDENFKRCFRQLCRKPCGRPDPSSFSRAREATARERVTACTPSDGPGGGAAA

This assay deals with Delta-type opioid receptor (Homo sapiens, UniProt P41143). In words: Efficacy relative to stimulation of [35S]GTP-gamma-S, binding by SNC80 was calculated for human delta opioid receptor. In kind it is functional.
Take `C=CCN1[C@@H]2CC[C@H]1CC(N(c1ccccc1)c1ccc(C(=O)N(CC)CC)cc1)C2` (some centres undefined): the Relative efficacy is 1.07.

`CCN(CC)C(=O)c1ccc(N(c2ccccc2)C2CCNCC2)cc1`: the Relative efficacy is 0.76.

On to `C=CCN1CCC(N(c2ccccc2)c2ccc(C(=O)N(CC)CC)cc2)CC1`, for which the Relative efficacy is 0.81.

Regarding `CCN(CC)C(=O)c1ccc(N(c2ccccc2)C2C[C@H]3CC[C@@H](C2)N3)cc1` (some centres undefined), the Relative efficacy is 0.95.
